Entries after “also recorded” stand apart in the source; their conditions may differ.
Tests used:
[1] = test system: female Sprague-Dawley rats; assay: 14-day repeated dose neurotoxicity study: brain histopathology (neuronal necrosis in PCG/RSC); details: 1 mg/kg sc
[2] = test system: female Sprague-Dawley rats; assay: Single dose neurotoxicity study: brain histopathology (neuronal necrosis in PCG/RSC); details: 1 mg/kg sc; for neuronal necrosis (Olney lesions) in the PCG/RSC: single and repeated dose studies
Method: In order to prepare for brain histopathology examination, all main study animals were perfused at necropsy. Prior to the perfusion, rats were anesthetized with isoflurane. After injection of 0.1 ml heparin, the blood of the rat was flushed out with a physiological saline solution by intraarterial insertion of a needle in the abdominal aorta. Thereafter the rat was perfused with glutaraldehyde 3% in potassium phosphate 0.09M and 1.4% sucrose. Due to logistic constraints at maximum 30 animals could undergo the whole-body perfusion procedure on a given day. Therefore, a staggered start of treatment was applied to all 5 groups of main study animals. Consequently, subgroups of 4 main study animals of the vehicle- and 36 and 54 mg-dosed groups, and 5 main study animals of the 72 mg-dosed and positive control groups, were dosed on 6 consecutive days, respectively.
The vehicle control, positive control, and esketamine HCl-dosed animals were sacrificed at either 48 hours (i.e., the first 12 or 15 rats per group) or 96 hours after the dose administration time (i.e., the last 12 or 15 rats per group). The brain tissue of the vehicle control-, positive control- and esketamine HCl-treated rats were processed at the same time and handled in the same way in batches of 4 or 5 animals per group.
Brain tissue was sampled and processed routinely. The trimmed and embedded tissue was sectioned and stained with hematoxylin-eosin (HE). Histoprocessing and staining were carried out in three batches of 4 animals per group (each batch thus containing 4 animals from vehicle control-, positive control- and the three esketamine HCl-treated groups). In the single dose study duplicate brain sections were stained with Fluoro-Jade (FJ).
Histopathological examination was performed on 7 levels of brain tissue according to Bolon (2013. Toxicol. Pathol. 41(7), 1028-1048) from the vehicle control-, positive control-, and high dose esketamine HCl-treated groups in the single dose study, and in all groups in the repeated dose study.
The microscopic finding of neuronal necrosis in the PCG/RSC of the brain was graded unilaterally according to the number of necrotic neurons observed over the total length of the PCG/RSC structure visible in the tissue section (usually around 3-5 mm) utilizing the following criteria: […]

(+)MK-801 maleate
animals with lesions scored marked [1]: 7 out of 12 | neuronal necrosis (Olney lesions) in the PCG/RSC [2]: presence; also recorded: neuronal necrosis was observed; also recorded: all treated animals | neuronal necrosis (Olney lesions) in the PCG/RSC ([2]; listed as (+)MK801 maleate): all rats | neuronal necrosis (Olney lesions) in the PCG/RSC ([2]; listed as (+)MK-801): presence | animals with lesions scored marked ([2]; single dose study): 25 out of 30
